From patent publication US11371077B2, “High throughput cell-based screening for aptamers” (MeiraGTx UK II Limited, priority 2016, dated 2022) come the findings set out here.

The subject of this data set is xpt-G17 riboswitch. Put plainly: Luciferase reporter assay, xpt-G17 riboswitch, transfected HEK 293 cells. It counts as cell-based. Particulars: 100 µM.

For the substance Avermectin B1, the “Fold Induction of luciferase activity” value was found to be 4.0 fold.
